Consider 1 compound from patent US20190105337A1, “METHODS OF TREATING BACTERIAL INFECTIONS” (priority 2015, published 2019).

For data set [1] the following is noted: 2 gram dose, cited from earlier work.
A further data set concerns P. aeruginosa strains. In kind it is cell-based, Pseudomonas aeruginosa. How it is done:
The pharmacokinetics simulation was based on data from the clinical study disclosed in Example 2.
In Vitro PK-PD Model: Six medium sized hollow-fiber cartridges (FiberCell Systems) were used per experiment. Three strains studied in duplicate were used for each experiment. Log-phase cells were inoculated and incubated for 2 hours prior to the start of treatment to achieve about 10^8 CFU/mL. Target PK parameters are listed in Tables E and F. The exposures were based on the published literatures disclosed in Example 2. Samples were collected from the central compartment for the determination of drug concentrations over a 32 hour period and were analyzed using an LC-MS/MS method.

Read-outs that look alike come from different tables or passages of the source.

Regarding `C[C@@H](O)[C@H]1C(=O)N2C(C(=O)O)=C(S[C@@H]3CN[C@H](C(=O)N(C)C)C3)[C@H](C)[C@H]12` [meropenem, Meropenem], the penetration ratio is listed as 0.05 in data set [1] (1-hour sampling time) and 0.22 in data set [1] (3-hour sampling time). For the same compound, the resistance development entry in the data set with P. aeruginosa strains (2 g q8h by 3 hour infusion, strain with an MIC of 8 mg/L) is “Resistance developed”. Besides, the “Resistance development over 32 hours” value in the data set with P. aeruginosa strains (P. aeruginosa PAM3353, human equivalent 2 g q8h by 3 hour infusion) is on record as “*Resistance Developed”.
